Reference: patent US20130096170A1 (priority 2011, published 2013)

Test system: infants 1 to 24 months postoperative from cardiac surgery
Details: for UMSS Deeply sedated/Deep sleep, number of patients / UMSS Minimally sedated/Sleepy, number of patients / UMSS Moderately sedated/Somnolent, number of patients / UMSS Unarousable, number of patients / UMSS Awake and alert, number of patients: N = 12, ITT; for UMSS, Mean / UMSS, Median: Pre-dose, ITT; for level of sedation (UMSS): all dose levels
[1] = Post Infusion Hour 10, Low dose (0.35 μg/kg bolus, 0.25 μg/kg/hour infusion)
[2] = Post Infusion Hour 10, Moderate dose (0.7 μg/kg bolus, 0.5 μg/kg/hour infusion)
[3] = Post Infusion Hour 14, High dose (1.0 μg/kg bolus, 0.75 μg/kg/hour infusion)
[4] = Post Infusion Hour 14, Low dose (0.35 μg/kg bolus, 0.25 μg/kg/hour infusion)
[5] = Post Infusion Hour 14, Moderate dose (0.7 μg/kg bolus, 0.5 μg/kg/hour infusion)
[6] = Post Infusion Hour 18, High dose (1.0 μg/kg bolus, 0.75 μg/kg/hour infusion)
[7] = Post Infusion Hour 18, Low dose (0.35 μg/kg bolus, 0.25 μg/kg/hour infusion)
[8] = Post Infusion Hour 18, Moderate dose (0.7 μg/kg bolus, 0.5 μg/kg/hour infusion)
[9] = Post Infusion Hour 22, High dose (1.0 μg/kg bolus, 0.75 μg/kg/hour infusion)
[10] = Post Infusion Hour 22, Low dose (0.35 μg/kg bolus, 0.25 μg/kg/hour infusion)
[11] = Post Infusion Hour 22, Moderate dose (0.7 μg/kg bolus, 0.5 μg/kg/hour infusion)
[12] = Post Infusion Hour 26, High dose (1.0 μg/kg bolus, 0.75 μg/kg/hour infusion)
[13] = Post Infusion Hour 26, Low dose (0.35 μg/kg bolus, 0.25 μg/kg/hour infusion)
[14] = Post Infusion Hour 26, Moderate dose (0.7 μg/kg bolus, 0.5 μg/kg/hour infusion)
[15] = Post-bolus/Pre-infusion, High dose (1.0 μg/kg bolus, 0.75 μg/kg/hour infusion)
[16] = Post-bolus/Pre-infusion, Low dose (0.35 μg/kg bolus, 0.25 μg/kg/hour infusion)
[17] = Post-bolus/Pre-infusion, Moderate dose (0.7 μg/kg bolus, 0.5 μg/kg/hour infusion)
[18] = Pre-bolus/Baseline, High dose (1.0 μg/kg bolus, 0.75 μg/kg/hour infusion)
[19] = Pre-bolus/Baseline, Low dose (0.35 μg/kg bolus, 0.25 μg/kg/hour infusion)
[20] = Pre-bolus/Baseline, Moderate dose (0.7 μg/kg bolus, 0.5 μg/kg/hour infusion)
[21] = High Dose (1.0 μg/kg bolus, 0.75 μg/kg/hour infusion)
[22] = Low Dose (0.35 μg/kg bolus, 0.25 μg/kg/hour infusion)
[23] = Moderate Dose (0.7 μg/kg bolus, 0.5 μg/kg/hour infusion)
[24] = six hours post-infusion, moderate dose

Cc1cccc([C@H](C)c2cnc[nH]2)c1C [dexmedetomidine] was tested, and the “UMSS Deeply sedated/Deep sleep, number of patients” value (“UMSS Deeply sedated/Deep sleep” below) [1] was 2 patients, the “UMSS Minimally sedated/Sleepy, number of patients” value (“UMSS Minimally sedated/Sleepy” for short) [1] was 2 patients and the “UMSS Moderately sedated/Somnolent, number of patients” value (“UMSS Moderately sedated/Somnolent” for short) [1] was 1 patients. The “UMSS Unarousable, number of patients” value [1] was 0 patients, the “UMSS Awake and alert, number of patients” value [2] was 1 patients and the “UMSS Deeply sedated/Deep sleep” value [2] was 1 patients. The “UMSS Minimally sedated/Sleepy” value [2] was 4 patients, the “UMSS Moderately sedated/Somnolent” value [2] was 4 patients and the “UMSS Unarousable, number of patients” value [2] was 1 patients. For the same compound, the “UMSS Awake and alert, number of patients” value [3] was 4 patients, the “UMSS Deeply sedated/Deep sleep” value [3] was 1 patients and the “UMSS Minimally sedated/Sleepy” value [3] was 2 patients. For the same compound, the “UMSS Moderately sedated/Somnolent” value [3] was 2 patients, the “UMSS Unarousable, number of patients” value [3] was 0 patients and the “UMSS Awake and alert, number of patients” value [4] was 2 patients. For the same compound, the “UMSS Deeply sedated/Deep sleep” value [4] was 2 patients, the “UMSS Minimally sedated/Sleepy” value [4] was 0 patients and the “UMSS Moderately sedated/Somnolent” value [4] was 4 patients. The “UMSS Unarousable, number of patients” value [4] was 0 patients, the “UMSS Awake and alert, number of patients” value [5] was 2 patients and the “UMSS Deeply sedated/Deep sleep” value [5] was 1 patients. The “UMSS Minimally sedated/Sleepy” value [5] was 3 patients, the “UMSS Moderately sedated/Somnolent” value [5] was 3 patients and the “UMSS Unarousable, number of patients” value [5] was 0 patients. The “UMSS Awake and alert, number of patients” value [6] was 2 patients, the “UMSS Deeply sedated/Deep sleep” value [6] was 0 patients and the “UMSS Minimally sedated/Sleepy” value [6] was 0 patients. For the same compound, the “UMSS Moderately sedated/Somnolent” value [6] was 2 patients, the “UMSS Unarousable, number of patients” value [6] was 0 patients and the “UMSS Awake and alert, number of patients” value [7] was 0 patients. For the same compound, the “UMSS Deeply sedated/Deep sleep” value [7] was 1 patients, the “UMSS Minimally sedated/Sleepy” value [7] was 2 patients and the “UMSS Moderately sedated/Somnolent” value [7] was 2 patients. The “UMSS Unarousable, number of patients” value [7] was 0 patients, the “UMSS Awake and alert, number of patients” value [8] was 1 patients and the “UMSS Deeply sedated/Deep sleep” value [8] was 0 patients. For the same compound, the “UMSS Minimally sedated/Sleepy” value [8] was 3 patients, the “UMSS Moderately sedated/Somnolent” value [8] was 1 patients and the “UMSS Unarousable, number of patients” value [8] was 1 patients. For the same compound, the “UMSS Awake and alert, number of patients” value [9] was 0 patients, the “UMSS Deeply sedated/Deep sleep” value [9] was 0 patients and the “UMSS Minimally sedated/Sleepy” value [9] was 0 patients. For the same compound, the “UMSS Moderately sedated/Somnolent” value [9] was 1 patients, the “UMSS Unarousable, number of patients” value [9] was 0 patients and the “UMSS Awake and alert, number of patients” value [10] was 1 patients. The “UMSS Deeply sedated/Deep sleep” value [10] was 0 patients, the “UMSS Minimally sedated/Sleepy” value [10] was 0 patients and the “UMSS Moderately sedated/Somnolent” value [10] was 2 patients. The “UMSS Unarousable, number of patients” value [10] was 0 patients, the “UMSS Awake and alert, number of patients” value [11] was 1 patients and the “UMSS Deeply sedated/Deep sleep” value [11] was 0 patients. The “UMSS Minimally sedated/Sleepy” value [11] was 0 patients, the “UMSS Moderately sedated/Somnolent” value [11] was 0 patients and the “UMSS Unarousable, number of patients” value [11] was 1 patients. For the same compound, the “UMSS Awake and alert, number of patients” value [12] was 0 patients, the “UMSS Deeply sedated/Deep sleep” value [12] was 0 patients and the “UMSS Minimally sedated/Sleepy” value [12] was 0 patients. For the same compound, the “UMSS Moderately sedated/Somnolent” value [12] was 0 patients, the “UMSS Unarousable, number of patients” value [12] was 0 patients and the “UMSS Awake and alert, number of patients” value [13] was 0 patients. The “UMSS Deeply sedated/Deep sleep” value [13] was 0 patients, the “UMSS Minimally sedated/Sleepy” value [13] was 1 patients and the “UMSS Moderately sedated/Somnolent” value [13] was 0 patients. For the same compound, the “UMSS Unarousable, number of patients” value [13] was 0 patients, the “UMSS Awake and alert, number of patients” value [14] was 0 patients and the “UMSS Deeply sedated/Deep sleep” value [14] was 0 patients. The “UMSS Minimally sedated/Sleepy” value [14] was 0 patients, the “UMSS Moderately sedated/Somnolent” value [14] was 0 patients and the “UMSS Unarousable, number of patients” value [14] was 0 patients. The “UMSS Awake and alert, number of patients” value [15] was 0 patients, the “UMSS Deeply sedated/Deep sleep” value [15] was 0 patients and the “UMSS Minimally sedated/Sleepy” value [15] was 0 patients. The “UMSS Moderately sedated/Somnolent” value [15] was 0 patients, the “UMSS Unarousable, number of patients” value [15] was 11 patients and the “UMSS Awake and alert, number of patients” value [16] was 0 patients. The “UMSS Deeply sedated/Deep sleep” value [16] was 1 patients, the “UMSS Minimally sedated/Sleepy” value [16] was 1 patients and the “UMSS Moderately sedated/Somnolent” value [16] was 0 patients. For the same compound, the “UMSS Unarousable, number of patients” value [16] was 10 patients, the “UMSS Awake and alert, number of patients” value [17] was 0 patients and the “UMSS Deeply sedated/Deep sleep” value [17] was 2 patients. The “UMSS Minimally sedated/Sleepy” value [17] was 0 patients, the “UMSS Moderately sedated/Somnolent” value [17] was 1 patients and the “UMSS Unarousable, number of patients” value [17] was 9 patients. The “UMSS Awake and alert, number of patients” value [18] was 0 patients, the “UMSS Deeply sedated/Deep sleep” value [18] was 1 patients and the “UMSS Minimally sedated/Sleepy” value [18] was 0 patients. For the same compound, the “UMSS Moderately sedated/Somnolent” value [18] was 0 patients, the “UMSS Unarousable, number of patients” value [18] was 10 patients and the “UMSS Awake and alert, number of patients” value [19] was 0 patients. The “UMSS Deeply sedated/Deep sleep” value [19] was 0 patients, the “UMSS Minimally sedated/Sleepy” value [19] was 1 patients and the “UMSS Moderately sedated/Somnolent” value [19] was 0 patients. For the same compound, the “UMSS Unarousable, number of patients” value [19] was 11 patients, the “UMSS Awake and alert, number of patients” value [20] was 0 patients and the “UMSS Deeply sedated/Deep sleep” value [20] was 1 patients. For the same compound, the “UMSS Minimally sedated/Sleepy” value [20] was 0 patients, the “UMSS Moderately sedated/Somnolent” value [20] was 0 patients and the “UMSS Unarousable, number of patients” value [20] was 11 patients. For the same compound, the “UMSS, Mean” value [21] was 3.9, the “UMSS, Median” value [21] was 4.0 and the “UMSS, Mean” value [22] was 3.8. The “UMSS, Median” value [22] was 4.0, the “UMSS, Mean” value [23] was 3.9 and the “UMSS, Median” value [23] was 4.0. For the same compound, the “level of sedation (UMSS)” value (after 4 hours infusion through the end of infusion) was “moderate level of sedation (UMSS 1-3)”, the “level of sedation (UMSS)” value (pre-dose to 2 hours after infusion) was “deep sedation (UMSS 3-4)” and the “mean change from Baseline maximum BIS value” (“mean change” for short) (pre-infusion, high dose) was −8.2±13.43. The “mean change” value (pre-infusion, moderate dose) was −5.8±13.22, the “incidence of patients "moderately sedated/somnolent" (UMSS)” value (six hours post-infusion, high dose) was 50.0% and the “incidence of patients "moderately sedated/somnolent" (UMSS)” value (six hours post-infusion, low dose) was 58.3%. For the same compound, the “incidence of patients "moderately sedated/somnolent" (UMSS)” value [24] was 41.7% and the “mean change” value [24] was 14.2±12.21.

Like-named read-outs stand apart in the source and are kept apart here.
